Measurements published in US20230144211A1, “ANTIFOLATE LINKER-DRUGS AND ANTIBODY-DRUG CONJUGATES” (Byondis B.V., priority 2020, published 2023).

What was measured:
Test in all cases: In vitro cell viability assay (CellTiter-Glo, 6 days)
AU-565 cells = assay type: cell-based, human; conditions: antifolate ADCs
Method: (§1) FaDu, BxPC-3, HeLa, MV4-11, and RAJI cell lines were obtained from Deutsche Sammlung von Mikroorganismen und Zellkulturen (Leipzig, Germany). Jurkat NucLight Red cells were obtained from Essen BioScience Inc. (Ann Arbor, Mich., USA). SK-BR-3 and SK-OV-3 cells were cultured in McCoys 5A medium (Lonza; Walkersville, Md., USA) supplemented with 10% v/w Fetal Bovine Serum (FBS), Heat-inactivated (HI) (Gibco-Life Technologies; Carlsbad, Calif.) and 80 U/mL Pen/Strep (Gibco-Life Technologies), at 37° C. in a humidified incubator under 5% CO2 atmosphere. SW-620 cells were similarly maintained in RPMI 1640 medium (Lonza), containing 10% v/w FBS HI and 80 U/mL Pen/Strep. A-549 cells were similarly maintained in F-12K Nutrient Mixture (1×) (Gibco-Life Technologies) media supplemented with 80 U/mL Pen/Strep and 5% v/w FBS, which was Qualified (Q) (Gibco-Life Technologies). BT-474 and AU-565 cells were similarly maintained in RPMI 1640 medium (Lonza), containing 10% v/w FBS, which was Qualified (Q) (Gibco-Life Technologies), and 80 U/mL Pen/Strep. […] Jurkat NucLight Red cells were similarly maintained in RPMI 1640 medium (Lonza), containing 10% v/w FBS HI, 80 U/mL Pen/Strep and 0.5 μg/mL Puromycin (Gibco-Life Technologies). FaDu cells were cultured in EMEM medium (Lonza) supplemented with 10% v/w FBS HI (Gibco-Life Technologies), 1× GlutaMAX (Gibco-Life Technologies), and 80 U/mL Pen/Strep (Gibco-Life Technologies), at 37° C. in a humidified incubator under 5% CO2 atmosphere.
(§2) After an overnight incubation, 10 serial log 10 dilutions of the free drugs were made in DMSO (Sigma-Aldrich). These free drug dose-response curves were 10-times further diluted in complete growth medium. For the ADCs according to the invention 10 serial log 10 dilutions were made in complete growth medium. 10 μL of a composition comprising a free drug or an ADC according to the invention was added to the assay plate (final DMSO content for free drugs was 1%). […] […] Percentage cell survival was calculated by dividing the measured luminescence for each free drug or ADC according to the concentration with the average mean of untreated cells (1% or 0.1% DMSO control (for free drugs) or 100% complete growth medium (for ADCs)) multiplied by 100.
(§3) Curves were fitted by non-linear regression using the sigmoidal dose-response equation with variable slope (four parameters) using curve-fitting software (GraphPad Prism, version 9.4.0 for Windows, GraphPad, San Diego, Calif. or Electronic Laboratory Notebook (ELN) add-in BioAssay, version 19.1.0.0218, Perkin Elmer, Waltham, Mass.). Relative IC50 values were calculated as the concentration that gives a response halfway between bottom and top of the curve, when using a 4-parameter logistic fit. Data were reported as mean IC50 value of at least one experiment performed in duplicate.

SK-OV-3 cells = assay type: cell-based, human; conditions: antifolate ADCs
Method: FaDu, BxPC-3, HeLa, MV4-11, and RAJI cell lines were obtained from Deutsche Sammlung von Mikroorganismen und Zellkulturen (Leipzig, Germany). Jurkat NucLight Red cells were obtained from Essen BioScience Inc. (Ann Arbor, Mich., USA). SK-BR-3 and SK-OV-3 cells were cultured in McCoys 5A medium (Lonza; Walkersville, Md., USA) supplemented with 10% v/w Fetal Bovine Serum (FBS), Heat-inactivated (HI) (Gibco-Life Technologies; Carlsbad, Calif.) and 80 U/mL Pen/Strep (Gibco-Life Technologies), at 37° C. in a humidified incubator under 5% CO2 atmosphere. SW-620 cells were similarly maintained in RPMI 1640 medium (Lonza), containing 10% v/w FBS HI and 80 U/mL Pen/Strep. A-549 cells were similarly maintained in F-12K Nutrient Mixture (1×) (Gibco-Life Technologies) media supplemented with 80 U/mL Pen/Strep and 5% v/w FBS, which was Qualified (Q) (Gibco-Life Technologies). BT-474 and AU-565 cells were similarly maintained in RPMI 1640 medium (Lonza), containing 10% v/w FBS, which was Qualified (Q) (Gibco-Life Technologies), and 80 U/mL Pen/Strep. […]
After an overnight incubation, 10 serial log 10 dilutions of the free drugs were made in DMSO (Sigma-Aldrich). […] Cell viability was assessed after 6 days using a luminescent assay kit (CellTiter-Glo™ (CTG), Promega Corporation) according to the manufacturer's instructions. Percentage cell survival was calculated by dividing the measured luminescence for each free drug or ADC according to the concentration with the average mean of untreated cells (1% or 0.1% DMSO control (for free drugs) or 100% complete growth medium (for ADCs)) multiplied by 100.
as §3, with “Data were reported as mean IC50 value of at least one experiment performed in duplicate.” left out

SW-620 cells = assay type: cell-based, human; conditions: antifolate ADCs, Table 3a; HER2-negative cell line
Method: (§4) Human tumor cell lines SK-BR-3, SW-620, A-549, BT-474, Jurkat Clone E6-1, AU-565, and SK-OV-3 were obtained from American Type Culture Collection (Rockville, Md., USA). FaDu, BxPC-3, HeLa, MV4-11, and RAJI cell lines were obtained from Deutsche Sammlung von Mikroorganismen und Zellkulturen (Leipzig, Germany). Jurkat NucLight Red cells were obtained from Essen BioScience Inc. (Ann Arbor, Mich., USA). SK-BR-3 and SK-OV-3 cells were cultured in McCoys 5A medium (Lonza; Walkersville, Md., USA) supplemented with 10% v/w Fetal Bovine Serum (FBS), Heat-inactivated (HI) (Gibco-Life Technologies; Carlsbad, Calif.) and 80 U/mL Pen/Strep (Gibco-Life Technologies), at 37° C. in a humidified incubator under 5% CO2 atmosphere. SW-620 cells were similarly maintained in RPMI 1640 medium (Lonza), containing 10% v/w FBS HI and 80 U/mL Pen/Strep. A-549 cells were similarly maintained in F-12K Nutrient Mixture (1×) (Gibco-Life Technologies) media supplemented with 80 U/mL Pen/Strep and 5% v/w FBS, which was Qualified (Q) (Gibco-Life Technologies). BT-474 and AU-565 cells were similarly maintained in RPMI 1640 medium (Lonza), containing 10% v/w FBS, which was Qualified (Q) (Gibco-Life Technologies), and 80 U/mL Pen/Strep. Jurkat Clone E6-1, BxPC-3, HeLa, MV4-11, and RAJI cells were similarly maintained in RPMI 1640 medium (Lonza), containing 10% v/w FBS HI and 80 U/mL Pen/Strep. Jurkat NucLight Red cells were similarly maintained in RPMI 1640 medium (Lonza), containing 10% v/w FBS HI, 80 U/mL Pen/Strep and 0.5 μg/mL Puromycin (Gibco-Life Technologies). FaDu cells were cultured in EMEM medium (Lonza) supplemented with 10% v/w FBS HI (Gibco-Life Technologies), 1× GlutaMAX (Gibco-Life Technologies), and 80 U/mL Pen/Strep (Gibco-Life Technologies), at 37° C. in a humidified incubator under 5% CO2 atmosphere.
(§5) Cells in complete growth medium were plated in 96-well plates (90 μL/well) and incubated at 37° C., 5% CO2 at the following cell densities: 6500 SK-BR-3, 4000 SW-620, 2500 A-549, 10000 BT-474, 3000 Jurkat Clone E6-1, 5000 AU-565, 1250 FaDu, 1250 BxPC-3, 1000 HeLa, 7500 MV4-11, 1000 RAJI, 3000 Jurkat NucLight Red, and 4000 SK-OV-3 cells per well. After an overnight incubation, 10 serial log 10 dilutions of the free drugs were made in DMSO (Sigma-Aldrich). These free drug dose-response curves were 10-times further diluted in complete growth medium. For the ADCs according to the invention 10 serial log 10 dilutions were made in complete growth medium. 10 μL of a composition comprising a free drug or an ADC according to the invention was added to the assay plate (final DMSO content for free drugs was 1%). […] Cell viability was assessed after 6 days using a luminescent assay kit (CellTiter-Glo™ (CTG), Promega Corporation) according to the manufacturer's instructions. Percentage cell survival was calculated by dividing the measured luminescence for each free drug or ADC according to the concentration with the average mean of untreated cells (1% or 0.1% DMSO control (for free drugs) or 100% complete growth medium (for ADCs)) multiplied by 100.
as §3

SK-BR-3 cells = assay type: cell-based; conditions: ADCs; HER2-positive SK-BR-3 human tumor cell line
Method: as §1, §2, §3

BT-474 cells = assay type: cell-based, human; conditions: antifolate ADCs, Table 3c
Method: as §1, §2, §3

[1] = tested on: Jurkat NucLight Red cells; assay type: cell-based, human; conditions: antifolate ADCs, Table 3d; for Jurkat NucLight Red cells IC50 (μg/mL): # no full dose-response curve; for Jurkat NucLight Red cells Efficacy (%): from minimum % viability at highest concentration
Method: as §4, §5, §3

BxPC-3 cells = assay type: cell-based, human; conditions: antifolate ADCs, Table 3c; # no full dose-response curve
Method: as §1, §2, §3

FaDu cells = assay type: cell-based, human; conditions: antifolate ADCs, Table 3c; # no full dose-response curve
Method: as §1, §2, §3

Substance | SW-620 cells Efficacy (%) (SW-620 cells) | SW-620 cells IC50 (SW-620 cells) | cytotoxicity in SK-BR-3 cells, comparison in words (SK-BR-3 cells) | further results
Trastuzumab conjugate DAR8-XT97 wild-type conjugation | – | – | – | AU-565 cells IC50 (AU-565 cells; Table 3b, $ steep hillslope): 0.042 µg/mL
Trastuzumab conjugate DAR8-XS23 wild-type conjugation | 0% | >10 µg/mL | – | SK-OV-3 cells IC50 μg/mL (SK-OV-3 cells; Table 3a, # no full dose-response curve): ~1.137^# μg/mL
Trastuzumab conjugate DAR8-XR4 wild-type conjugation | 0% | >10 µg/mL | – | –
Trastuzumab conjugate DAR8-XX19 wild-type conjugation | – | – | more active | –
Trastuzumab conjugate DAR8-XG2 wild-type conjugation | – | – | more active | BT-474 cells IC50 (BT-474 cells): 0.036 µg/mL; AU-565 cells IC50 (AU-565 cells; Table 3c): 0.015 µg/mL; Jurkat NucLight Red cells IC50 (μg/mL) [1]: >10^# μg/mL; Jurkat NucLight Red cells Efficacy (%) [1]: 5%
Trastuzumab conjugate DAR2-XT17 wild-type conjugation | 0% | >10 µg/mL | – | –
Trastuzumab conjugate DAR8-XT54 wild-type conjugation | 0% | >10 µg/mL | – | –
Trastuzumab conjugate DAR8-XT46 wild-type conjugation | 0% | >10 µg/mL | somewhat less active | –
Trastuzumab conjugate DAR8-XT41 wild-type conjugation | 0% | >10 µg/mL | more active | –
Trastuzumab conjugate DAR8-XR16 wild-type conjugation | – | – | more active | –
Trastuzumab conjugate DAR8-XT16 wild-type conjugation | 0% | >10 µg/mL | – | –
Trastuzumab conjugate DAR8-XJ9 wild-type conjugation | – | – | – | AU-565 cells IC50 (AU-565 cells; Table 3b, $ steep hillslope): 0.032 µg/mL
trastuzumab conjugates with XT162 | – | – | more active | –
Trastuzumab conjugate DAR4-XT17 wild-type conjugation | 0% | >10 µg/mL | – | –
Trastuzumab conjugate DAR8-XR162 wild-type conjugation | – | – | – | BxPC-3 cells IC50 (μg/mL) (BxPC-3 cells): >10^# μg/mL; FaDu cells IC50 (μg/mL) (FaDu cells): >10^# μg/mL; AU-565 cells IC50 (AU-565 cells; Table 3c): 0.018 µg/mL; Jurkat NucLight Red cells IC50 (μg/mL) [1]: >10^# μg/mL; Jurkat NucLight Red cells Efficacy (%) [1]: 0%
Trastuzumab conjugate DAR8-XT123 wild-type conjugation | – | – | more active | BxPC-3 cells IC50 (μg/mL) (BxPC-3 cells): >10^# μg/mL; FaDu cells IC50 (FaDu cells): 6.639 µg/mL; AU-565 cells IC50 (AU-565 cells; Table 3c): 0.010 µg/mL; Jurkat NucLight Red cells IC50 (μg/mL) [1]: >10^# μg/mL; Jurkat NucLight Red cells Efficacy (%) [1]: 4%
Trastuzumab conjugate DAR8-XR12 wild-type conjugation | – | – | somewhat less active | –
Trastuzumab conjugate DAR8-XX23 wild-type conjugation | – | – | more active | –
Trastuzumab conjugate DAR8-XT31/XT32 wild-type conjugation | 0% | >10 µg/mL | – | –
Trastuzumab conjugate DAR8-XT94 wild-type conjugation | – | – | more active | AU-565 cells IC50 (μg/mL) (AU-565 cells; Table 3b, $ steep hillslope): ~0.027^$ μg/mL
Trastuzumab conjugate DAR8-XT100 wild-type conjugation | – | – | – | AU-565 cells IC50 (AU-565 cells; Table 3b, $ steep hillslope): 0.024 µg/mL
Trastuzumab conjugate DAR8-XJ21 wild-type conjugation | – | – | – | SK-OV-3 cells Efficacy (%) (SK-OV-3 cells; Table 3b): 34%; SK-OV-3 cells IC50 (SK-OV-3 cells; Table 3b): 0.375 µg/mL
Trastuzumab conjugate DAR8-XT114 wild-type conjugation | – | – | more active | AU-565 cells IC50 (AU-565 cells; Table 3b, later experiment, direct comparison between DAR8-XX23 and DAR8-XT114): 0.008 µg/mL
